Where two headings read alike, the source gives them in different places.
Biological target: FAAH (Rattus norvegicus, UniProt P97612)
Assay: Determination of FAAH inhibitory activity in rat (rat brain membrane preparations, [3H]-anandamide hydrolysis)
[1] = read-out: FAAH Inhibition IC50, test substance 0.1 nM to 1 μM
[2] = 100 nM test substance, tested form: HCl
[3] = read-out: FAAH Inhibition IC50, test substance 0.1 nM to 1 μM, tested form: HCl

The chains behind the UniProt entries cited, without tags or fusion partners.
UniProt P97612, whole entry: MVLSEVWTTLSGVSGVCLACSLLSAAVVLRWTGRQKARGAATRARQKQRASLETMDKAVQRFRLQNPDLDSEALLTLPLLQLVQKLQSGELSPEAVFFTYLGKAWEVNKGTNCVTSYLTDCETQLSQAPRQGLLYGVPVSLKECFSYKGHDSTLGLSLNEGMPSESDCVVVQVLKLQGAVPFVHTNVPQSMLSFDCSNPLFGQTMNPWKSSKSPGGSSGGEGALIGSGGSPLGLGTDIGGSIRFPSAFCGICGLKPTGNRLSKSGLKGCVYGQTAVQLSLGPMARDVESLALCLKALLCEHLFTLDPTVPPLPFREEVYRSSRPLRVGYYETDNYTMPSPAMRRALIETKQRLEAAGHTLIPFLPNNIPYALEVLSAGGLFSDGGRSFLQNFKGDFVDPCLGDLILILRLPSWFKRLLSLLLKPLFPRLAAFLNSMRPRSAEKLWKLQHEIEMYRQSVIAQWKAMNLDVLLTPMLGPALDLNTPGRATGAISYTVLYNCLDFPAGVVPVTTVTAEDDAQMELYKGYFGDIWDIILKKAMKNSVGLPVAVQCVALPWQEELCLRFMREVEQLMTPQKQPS

Compound | FAAH Inhibition, Inhibition Rate at 100 nM (100 nM test substance) [%] | IC50 [1] [nM] | also measured
Cn1c(=O)n(C(=O)N2CCC2)c2nc(CCc3ccccc3Cl)ncc21 |  |  | FAAH Inhibition, Inhibition Rate at 100 nM (at 100 nM): 83%; IC50 (read-out: FAAH Inhibition IC50): 34 nM
Cn1c(=O)n(C(=O)N2CCC2)c2nc(CCc3ccc(F)c(C4CC4)c3)ncc21 | 88 | 27 | 
Cn1c(=O)n(C(=O)N2CCC2)c2nc(-c3cccc(C(F)F)c3)ncc21 | 109 | 10 | 
COc1ccc(CCc2ncc3c(n2)n(C(=O)N2CCC2)c(=O)n3C)cc1 |  |  | FAAH Inhibition, Inhibition Rate at 100 nM (at 100 nM): 83%; IC50 (read-out: FAAH Inhibition IC50): 28 nM
CN(C)C(=O)n1c(=O)n(C)c2cnc(CCc3cccc(OCC4CCC4)c3)nc21 | 101 | 11 | 
CCc1cccc(CCc2ncc3c(n2)n(C(=O)N2CCC2)c(=O)n3C)c1 | 98 | 10 | 
Cc1cc(CCc2ncc3c(n2)n(C(=O)N2CCC2)c(=O)n3C)ccc1F | 93 | 10 | 
Cc1ccc(CCc2ncc3c(n2)n(C(=O)N2CCC2)c(=O)n3C)cc1F | 106 | 10 | 
Cn1c(=O)n(C(=O)N2CCC2)c2nc(CCc3ccc(C4CC4)c(F)c3)ncc21 | 86 | 98 | 
Cn1c(=O)n(C(=O)N2CCC2)c2nc(CCc3ccccc3C(F)(F)F)ncc21 |  |  | FAAH Inhibition, Inhibition Rate at 100 nM (at 100 nM): 98%; IC50 (read-out: FAAH Inhibition IC50): 8 nM
Cn1c(=O)n(C(=O)N2CCC2)c2nc(CCc3cccc(C(F)(F)F)c3)ncc21 | 125 | 4 | 
Cn1c(=O)n(C(=O)N2CCC2)c2nc(-c3ccc(Cl)cc3)ncc21 | 88 | 14 | 
Cn1c(=O)n(C(=O)N2CCC2)c2nc(CCc3ccc(F)cc3F)ncc21 | 84 | 37 | 
CCCc1cccc(CCc2ncc3c(n2)n(C(=O)N2CCC2)c(=O)n3C)c1 | 97 | 10 | 
Cn1c(=O)n(C(=O)N2CCC2)c2nc(-c3ccc(C(F)(F)F)cc3)ncc21 | 76 | 39 | 
Cn1c(=O)n(C(=O)N2CCC2)c2nc(CCc3ccccc3OC(F)F)ncc21 |  |  | FAAH Inhibition, Inhibition Rate at 100 nM (at 100 nM): 97%; IC50 (read-out: FAAH Inhibition IC50): 14 nM
Cn1c(=O)n(C(=O)N2CCC2)c2nc(-c3ccc(C(F)F)cc3)ncc21 | 109 | 10 | 
Cn1c(=O)n(C(=O)N2CCC2)c2nc(CCc3cccc(Cl)c3)ncc21 | 90 | 29 | 
Cn1c(=O)n(C(=O)N2CCC2)c2nc(-c3cccc(OC(F)F)c3)ncc21 | 106 | 9 | 
Cn1c(=O)n(C(=O)N2CCC2)c2nc(COc3cccc(OC(F)(F)F)c3)ncc21 |  |  | FAAH Inhibition, Inhibition Rate at 100 nM [2]: 117%; IC50 [3]: 1 nM

Compound | FAAH Inhibition, Inhibition Rate at 100 nM (100 nM test substance) [%] | IC50 [1] [nM] | also measured
Cn1c(=O)n(C(=O)N2CCC2)c2nc(CCc3ccc(F)c(F)c3)ncc21 | 93 | 10 | 
Cn1c(=O)n(C(=O)N2CCC2)c2nc(CCc3cccc(OCC4CC4)c3)ncc21 | 96 | 25 | 
Cn1c(=O)n(C(=O)N2CCC2)c2nc(-c3cccc(OCC(F)(F)F)c3)ncc21 | 79 | 30 | 
Cn1c(=O)n(C(=O)N2CCC2)c2nc(CCc3cccc(OC(F)(F)F)c3)ncc21 |  |  | FAAH Inhibition, Inhibition Rate at 100 nM (at 100 nM): 101%; IC50 (read-out: FAAH Inhibition IC50): 6 nM
Cc1ccc(-c2ncc3c(n2)n(C(=O)N2CCC2)c(=O)n3C)cc1 | 75 | 86 | 
COc1cccc(CCc2ncc3c(n2)n(C(=O)N2CCC2)c(=O)n3C)c1 |  |  | FAAH Inhibition, Inhibition Rate at 100 nM (at 100 nM): 71%; IC50 (read-out: FAAH Inhibition IC50): 38 nM
Cn1c(=O)n(C(=O)N2CCC2)c2nc(COc3ccccc3C(F)(F)F)ncc21 |  |  | FAAH Inhibition, Inhibition Rate at 100 nM [2]: 99%; IC50 [3]: 9 nM
Cn1c(=O)n(C(=O)N2CCC(c3ccccc3)C2)c2cnc(-c3ccccc3)nc21 (stereo not shown) | 70 | 71 | 
Cn1c(=O)n(C(=O)N2CCC2)c2nc(CCc3cccc(OC(F)F)c3)ncc21 |  |  | FAAH Inhibition, Inhibition Rate at 100 nM (at 100 nM): 105%; IC50 (read-out: FAAH Inhibition IC50): 5 nM
Cn1c(=O)n(C(=O)N2CCC2)c2nc(CCc3c(F)cccc3F)ncc21 |  |  | FAAH Inhibition, Inhibition Rate at 100 nM (at 100 nM): 91%; IC50 (read-out: FAAH Inhibition IC50): 22 nM
Cc1cccc(-c2ncc3c(n2)n(C(=O)N2CCC2)c(=O)n3C)c1 | 85 | 25 | 
CN(C)C(=O)n1c(=O)n(C)c2cnc(CCc3ccc(OC(F)(F)F)cc3)nc21 | 103 | 10 | 
CN(C)C(=O)n1c(=O)n(C)c2cnc(CCc3cccc(OC4CCCC4)c3)nc21 | 78 | 99 | 
Cn1c(=O)n(C(=O)N2CCC2)c2nc(-c3cccc(OCC(F)F)c3)ncc21 | 86 | 22 | 
Cn1c(=O)n(C(=O)N2CCC2)c2nc(CCc3ccc(OC4CCCC4)cc3)ncc21 |  |  | FAAH Inhibition, Inhibition Rate at 100 nM [2]: 109%; IC50 [3]: 7 nM
Cc1ccc(CCc2ncc3c(n2)n(C(=O)N(C)C)c(=O)n3C)cc1F | 102 | 10 | 
CN(C)C(=O)n1c(=O)n(C)c2cnc(CCc3ccccc3OC(F)F)nc21 | 64 | 55 | 
CN(C)CCn1c(=O)n(C(=O)N2CCCC2)c2cnc(-c3ccccc3)nc21 |  | > 100 | FAAH Inhibition, Inhibition Rate (1000 nM) (1000 nM test substance (stated in the cell)): 45 (1000 nM) %
Cc1cc(C)c(CCc2ncc3c(n2)n(C(=O)N(C)C)c(=O)n3C)cc1C | 99 | 9 | 
Cn1c(=O)n(C(=O)N2CCC2)c2nc(CCc3cc(F)ccc3F)ncc21 | 87 | 37 | 

Compound | FAAH Inhibition, Inhibition Rate at 100 nM (100 nM test substance) [%] | IC50 [1] [nM] | also measured
Cn1c(=O)n(C(=O)N2CCC2)c2nc(CCc3ccc(OC4CCC4)cc3)ncc21 |  |  | FAAH Inhibition, Inhibition Rate at 100 nM [2]: 79%; IC50 [3]: 29 nM
COc1ccccc1-c1ncc2c(n1)n(C(=O)N1CCCC1)c(=O)n2C | 43 | > 100 | 
CN(C)C(=O)n1c(=O)n(C)c2cnc(-c3ccc(OCC(F)F)cc3)nc21 | 73 | 56 | 
Cn1c(=O)n(C(=O)N2CCC2)c2nc(CCc3ccccc3OC(F)(F)F)ncc21 |  |  | FAAH Inhibition, Inhibition Rate at 100 nM (at 100 nM): 94%; IC50 (read-out: FAAH Inhibition IC50): 6 nM
Cn1c(=O)n(C(=O)N2CCC2)c2nc(-c3ccc(OC(F)F)cc3)ncc21 | 113 | 5 | 
CCOCc1ncc2c(n1)n(C)c(=O)n2C(=O)N1CC(c2cccc(C(F)(F)F)c2)C1 | 76 | 25 | 
Cn1c(=O)n(C(=O)N2CCC2)c2nc(CCc3cccc(F)c3F)ncc21 |  |  | FAAH Inhibition, Inhibition Rate at 100 nM (at 100 nM): 103%; IC50 (read-out: FAAH Inhibition IC50): 8 nM
CN(C)C(=O)n1c(=O)n(C)c2cnc(CCc3cccc(OC4CCC4)c3)nc21 | 58 | 100 | 
Cn1c(=O)n(C(=O)N2CCC2)c2nc(COc3cccc(C(F)(F)F)c3)ncc21 |  |  | FAAH Inhibition, Inhibition Rate at 100 nM [2]: 95%; IC50 [3]: 11 nM
CCCOCc1ncc2c(n1)n(C)c(=O)n2C(=O)N1CC(c2cccc(F)c2)C1 |  |  | FAAH Inhibition, Inhibition Rate at 100 nM [2]: 69%; IC50 [3]: 32 nM
Cn1c(=O)n(C(=O)N2CCC2)c2nc(CCc3cccc(OCC(F)F)c3)ncc21 |  |  | FAAH Inhibition, Inhibition Rate at 100 nM [2]: 69%; IC50 [3]: 95 nM
Cn1c(=O)n(C(=O)N2CCC2)c2nc(CCc3ccccc3C(F)F)ncc21 |  |  | FAAH Inhibition, Inhibition Rate at 100 nM (at 100 nM): 90%; IC50 (read-out: FAAH Inhibition IC50): 14 nM
Cn1c(=O)n(C(=O)N2CCC2)c2nc(CCc3cccc(OC4CCC4)c3)ncc21 |  |  | FAAH Inhibition, Inhibition Rate at 100 nM [2]: 80%; IC50 [3]: 39 nM
Cn1c(=O)n(C(=O)N2CCC2)c2nc(CCc3ccccc3)ncc21 |  |  | FAAH Inhibition, Inhibition Rate at 100 nM (at 100 nM): 84%; IC50 (read-out: FAAH Inhibition IC50): 20 nM
Cn1c(=O)n(C(=O)N2CC(c3cccc(F)c3)C2)c2cnc(COCC3CC3)nc21 | 72 | 52 | 
Cn1c(=O)n(C(=O)N2CCC2)c2nc(-c3cccc(Cl)c3)ncc21 | 91 | 19 | 
CN(C)C(=O)n1c(=O)n(C)c2cnc(CCc3ccccc3Cl)nc21 | 100 | 10 | 
Cn1c(=O)n(C(=O)N2CCC(=O)C2)c2cnc(-c3ccccc3)nc21 | 84 | 48 | 
Cc1cc(-c2ncc3c(n2)n(C)c(=O)n3C(=O)N2CCCC2)ccc1F | 103 | 18 | 
